Measurements as given in patent US5451518A, “Purified human ceramide-activated protein kinase” (Sloan-Kettering Institute for Cancer Research, priority 1992, dated 1995).

How the values were obtained:
EL4 cells = conditions: 24 h; for IL-2 secretion, agent alone (in words): IL-1β 1-30 ng ml^-1, TPA 1-20 ng ml^-1
EL-4 cells = test: Ceramide levels in intact EL-4 cells; format: cell-based, murine; conditions: maximally effective concentrations (n=5), SMase 1×10^-3 U ml^-1
Procedure: Time course (FIG. 12A) and dose response (FIG. 12B). Cells were grown to growth arrest (1-1.5×10^6 cells ml^-1) in DME/Ham's F12 medium (1:1, v/v) containing 10% horse serum and for 48 hours [^3 H]choline (1 μCi ml^-1). On the day of an experiment, cells were resuspended back into the same medium at 10×10^6 cells ml^-1 and stimulated with 40 ng ml^-1 IL-1β for the indicated times (FIG. 12A) or for 30 minutes with increasing concentrations of IL-1β (FIG. 12B). Human IL-1β may be obtained using methods well knownto those skilled in the art. Reactions were terminated with CHCl3 :CH3 OH:HCl (100:100:1) containing 10 mM EDTA (82). Lipids in the organic phase extract were dried under N2 and subjected to mild alkaline hydrolysis (0.1M methanolic KOH for 1 hour at 37° C.) to remove glycerophospholipids. Spingomyelin was resolved by thin-layer chromatography (TLC) using CHCl3 :CH3 OH:CH3 COOH:H2 O (60:30:8:5) as solvent, identified by iodine vapor staining, and quantified by liquid scintillation spectrometry. […]
Cells were stimulated as in FIGS. 12A and 12B with IL-1β (40 ng ml^-1) and ceramide contained within the organic phase extract quantified enzymatically using the E. coli diacylglycerol kinase reaction (57). Lipids were resolved by TLC using CHCl3 :CH3 OH:CH3 COOH (65/15/5) as solvent, autoradiographed and quantified by liquid scintillation spectrometry. […]

| Substance | IL-2 secretion, agent alone (in words) (EL4 cells) | ceramide response (in words) (EL-4 cells) | IL-2 secretion in combination with TPA (in words) (EL4 cells) |
| --- | --- | --- | --- |
| IL-1β: Human IL-1β | did not induce detectable IL-2 secretion | – | – |
| sphingomyelinase | failed to stimulate IL-2 secretion | increase in ceramide content quantitatively similar to that induced by maximally effective concentrations of IL-1β | – |
| phospholipase A2 | did not stimulate IL-2 secretion | – | did not stimulate IL-2 secretion alone or in combination with TPA |
